Bioassay records: PubChem, Broad Institute
In the library only some 2.2% were active in any assay of this set; here they are far more common.
UUG fidelity – modulators of start codon recognition fidelity in yeast; AID 602363; activity score, % at 18.7 µM; S. cerevisiae UUG-firefly luciferase reporter, luminescence/redox ratio; actives 0.13% (n = 350,000);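 active = replicate mean at a twofold rise or more, about +100% in these data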;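 note: firefly luciferase made from a UUG start codon reports start codon fidelity; reporter light over untreated wells divided by growth signal over untreated wells; some hits fall short of that in this replicate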
PDI inh – blocks human protein disulfide isomerase activity | AID 588391 | hit rate 0.052% among 350,000 | P07237 | PDI insulin aggregation turbidity, A650, 90 min | inhibition, % at 10 µM;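 active = mean inhibition across replicates of 30% or more, whatever share of single replicates reach that level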
SIRT5 block – sirtuin-5 (human) deacylase inhibition; Q9NXA8; Purified SirT5, succinyl-peptide AMC, trypsin-coupled fluorescence; inhibition, % at 15 µM; hit rate 1.1% among 330,000; in the data active = inhibition above about 15%
FGF22 binding – shifts melting point of recombinant human FGF22. Q9HCT0. recombinant FGF22 thermal shift, SYPRO orange fluorescence; percent of sucrose octasulfate shift, DMSO zero. activity (Tm shift, normalised), % at 9.99 µM. hit rate 1.5% among 340,000. AID 651658;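 active = mean Tm shift, scaled 0 neutral to 100 positive control, at about 1.3% or above, every replicate too, limit read from the data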
S100A4 inh HTS – S100A4-myosin IIA interaction inhibition; P26447; S100A4/TAMRA-MyoIIA peptide fluorescence polarization; inhibition, % at 10.7 µM; hit rate 0.14% among 360,000; AID 652163;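 active = mean inhibition of at least 70% across replicates, with every replicate also reaching that level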
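Compound dosing: one dose per compound; test system: human S100A4 monomer with TAMRA-labelled myosin IIA peptide; probe or stimulus: TAMRA-labelled myosin IIA heavy-chain peptide probe, 5 nM; medium: HEPES buffer with Ca2+, pH 7.2; schedule: 5 min incubation before reading; benchmarks: neutral control DMSO, positive control TFP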
ERp5 inh – ERp5 (human) disulfide isomerase inhibition; Q15084; ERp5 insulin aggregation, absorbance 650 nm, 90 min; inhibition, % at 9.99 µM; hit rate 0.05% among 350,000; AID 651711;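 active = mean replicate inhibition above about 25%, with every replicate also reaching it, limit read from the data, passing the limit was not always enough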
A number is an active result; i = inactive; nt = no result.

SMILES | UUG fidelity | PDI inh | SIRT5 block | FGF22 binding | S100A4 inh HTS | ERp5 inh
C[C@@H]1CN([C@H](C)CO)S(=O)(=O)c2ccc(C3=CCCCC3)cc2O[C@@H]1CN(C)S(=O)(=O)c1cn(C)cn1 | nt | nt | i | i | i | i
CCN(CC)S(=O)(=O)c1cc(NC(=O)c2ccc(-n3cncn3)c([N+](=O)[O-])c2)ccc1C | i | i | i | i | i | 25
Cc1ccc(N2NC(=O)/C(=C/c3ccc(-c4ccc(Cl)c(C(=O)O)c4)o3)C2=O)cc1C | i | i | i | i | i | i
CC1=NOC(=O)/C1=C\c1ccc(-c2ccc(Cl)c(C(=O)O)c2)o1 | nt | i | 22 | i | i | i
COC(=O)c1ccc(N2NC(=O)/C(=C/c3ccc(-c4ccc(Cl)c(C(=O)O)c4)o3)C2=O)cc1 | nt | i | 23 | i | i | i
O=C1NN(c2ccc(Cl)c(Cl)c2)C(=O)/C1=C/c1ccc(-c2ccccc2C(=O)O)o1 | i | i | i | i | i | i
O=C1NN(c2ccccc2)C(=O)/C1=C/c1ccc(-c2ccc(C(=O)O)cc2)o1 | i | i | 24 | i | i | i
C[C@@H]1CN([C@H](C)CO)C(=O)c2cc(NC(=O)NC3CCCCC3)ccc2O[C@@H]1CN(C)C(=O)Nc1ccccc1 | i | nt | i | i | i | i
COCCNC(=O)C[C@@H]1C=C[C@H](NS(=O)(=O)c2ccc(C)cc2)[C@H](CO)O1 | i | nt | i | i | i | i
CN(C)c1ccc(C(=S)N2CCCCC2)cc1 | i | i | i | 43 | i | i
Cc1cc(=O)[nH]c(CN2CCOCC2)n1 | i | i | i | 43 | i | i
Cc1cc(=O)[nH]c(CN2CCC(c3ccccc3)CC2)n1 | nt | i | i | i | i | i
Cc1nc(CN2CCCCC2)cc(=O)[nH]1 | i | i | i | 43 | i | i
COc1ccc2c3c(n(C)c2c1)[C@@H](CO)N(CC1CCCC1)CC31CCN(C(C)=O)CC1 | nt | nt | i | i | i | i
CCCNC(=O)[C@H]1[C@H](CO)[C@H]2Cn3c(ccc(-c4cccc(C(=O)N(C)C)c4)c3=O)[C@@H]1N2 | nt | nt | i | i | i | i
Cc1cc(C(=O)Nc2cccc3c2O[C@H](CN(C)Cc2ccc(Oc4ccccc4)cc2)[C@@H](C)CN([C@H](C)CO)C3=O)n(C)n1 | i | nt | 17 | i | i | i
Cc1cc(C(=O)Nc2cccc3c2O[C@H](CN(C)S(=O)(=O)c2ccc(Cl)cc2)[C@H](C)CN([C@H](C)CO)C3=O)n(C)n1 | i | nt | i | i | i | i
Cc1cc(C(=O)Nc2cccc3c2O[C@@H](CN(C)S(=O)(=O)c2ccc(Cl)cc2)[C@@H](C)CN([C@@H](C)CO)C3=O)n(C)n1 | i | nt | i | i | i | 26
Cc1cc(C(=O)Nc2cccc3c2O[C@@H](CN(C)CC2CC2)[C@H](C)CN([C@H](C)CO)C3=O)n(C)n1 | i | nt | i | i | i | i
Cc1cc(C(=O)Nc2cccc3c2O[C@H](CN(C)CC2CC2)[C@H](C)CN([C@H](C)CO)C3=O)n(C)n1 | i | nt | 16 | i | i | i
Cc1cc(C(=O)Nc2cccc3c2O[C@@H](CN(C)Cc2ccccc2)[C@@H](C)CN([C@H](C)CO)C3=O)n(C)n1 | i | nt | i | i | i | i
COC(=O)C1CCN(C(=O)Cc2ccccc2OC)CC1 | nt | i | i | 43 | i | i
Nc1ccc(Cc2ccc(N)c(C(=O)O)c2)cc1C(=O)O | i | i | 45 | i | i | i
O=C(CCS(=O)(=O)Cc1ccccc1)NCCc1ccccc1 | nt | i | i | 43 | i | i
NS(=O)(=O)c1ccc(CCNC(=O)CCS(=O)(=O)c2ccc(Br)cc2)cc1 | i | i | 16 | i | i | i
SMILES | UUG fidelity | PDI inh | SIRT5 block | FGF22 binding | S100A4 inh HTS | ERp5 inh
NS(=O)(=O)c1ccc(CCNC(=O)c2ccc(Br)s2)cc1 | nt | i | i | 43 | i | i
CO[C@H]1CN(C)C(=O)c2cc(NC(C)=O)ccc2OC[C@@H](C)N(C(=O)c2cnccn2)C[C@H]1C | nt | nt | i | i | i | i
COc1ccc2c3c(n(C)c2c1)[C@@H](CO)N(CC1CC1)CC31CCN(C(=O)CN(C)C)CC1 | nt | nt | i | i | i | i
C[C@H](NC(=O)C[C@@H]1C[C@@H]2c3cc(NC(=O)Nc4ccc(C(F)(F)F)cc4)ccc3O[C@@H]2[C@@H](CO)O1)c1ccccc1 | nt | nt | nt | i | 85 | i
C[C@H](NC(=O)C[C@@H]1C[C@H]2c3cc(NC(=O)CN(C)C)ccc3O[C@H]2[C@@H](CO)O1)c1ccccc1 | i | nt | i | i | i | i
C[C@H](NC(=O)C[C@H]1C[C@@H]2c3cc(NC(=O)CN(C)C)ccc3O[C@@H]2[C@H](CO)O1)c1ccccc1 | i | nt | i | i | 108 | i
C[C@@H](NC(=O)C[C@@H]1C[C@@H]2c3cc(NC(=O)c4ccc5c(c4)OCO5)ccc3O[C@@H]2[C@H](CO)O1)c1ccccc1 | nt | nt | 15 | i | i | i
O=C(C[C@@H]1CC[C@H]2[C@@H](COC[C@H](O)CN2C(=O)Nc2cccc(Cl)c2)O1)NCc1ccccc1F | i | nt | i | i | i | i
O=C(c1ccccc1)c1cccs1 | nt | i | i | 43 | i | i
Cc1cc(C)cc(OCC(=O)Nc2ccccc2C(=O)N2CCOCC2)c1 | i | 37 | i | i | i | i
O=C(Cn1nc(-c2ccc(F)cc2)ccc1=O)Nc1ccc2c(c1)OCCO2 | i | i | i | i | i | i
Cc1cccc(OCC(=O)Nc2ccccc2C(=O)N2CCOCC2)c1 | i | i | nt | nt | nt | nt
Cc1cc(C)cc(OCC(=O)Nc2ccc3c(c2)OCCO3)c1 | nt | i | i | 43 | i | i
Cc1ccc(-c2ccc(=O)n(CC(=O)Nc3ccc4c(c3)OCCO4)n2)cc1 | nt | i | 20 | i | i | i
O=C(COc1ccc(F)cc1)Nc1ccc2c(c1)OCCO2 | i | i | i | i | i | i
CNC(=O)C[C@H]1CC[C@H]2[C@@H](COc3ccc(NC(=O)C(C)C)cc3C(=O)N2C)O1 | i | nt | nt | i | nt | nt
COCCNS(=O)(=O)c1ccc2c3c(cccc13)C(=O)N2C | nt | i | i | 43 | i | i
Cc1noc(C)c1NC(=O)Nc1ccc2c(c1)C(=O)N([C@H](C)CO)C[C@@H](C)[C@H](CN(C)C(=O)Nc1ccc(F)cc1)OCCCC[C@H](C)O2 | nt | nt | nt | i | i | i
COc1ccc(S(=O)(=O)Nc2ccc3c(c2)C(=O)N([C@@H](C)CO)C[C@H](C)[C@@H](CN(C)C(=O)Nc2ccccc2)OCCCC[C@H](C)O3)cc1 | i | nt | nt | i | nt | nt
COc1ccc(NC(=O)N(C)C[C@@H]2OCCCC[C@@H](C)Oc3ccc(NS(=O)(=O)c4ccc(Cl)cc4)cc3C(=O)N([C@H](C)CO)C[C@@H]2C)cc1 | i | nt | i | i | 139 | i
Cc1ccc(S(=O)(=O)Nc2ccc3c(c2)C(=O)N([C@H](C)CO)C[C@@H](C)[C@H](CN(C)C(=O)Nc2ccc(F)cc2)OCCCC[C@H](C)O3)cc1 | i | nt | 21 | i | i | i
